Literature values, collected in patent US7709647B2, “Tetrahydroquinoline cannabinoid receptor modulators” (Bristol-Myers Squibb Company, priority 2005, dated 2010).

Conditions: chronic administration for two weeks

Q: Which adipose tissue mass does the source give for `Cc1c(C(=O)NN2CCCCC2)nn(-c2ccc(Cl)cc2Cl)c1-c1ccc(I)cc1` [AM-251] here?
A: decreased adipose tissue mass
